Ab-14 light chain CDR variants: yeast mating affinities

Values reported by Li et al. 2023, doi:10.1038/s41467-023-39022-2 (FLAb copy).

The target is the same throughout: PDVDLGDISGINAS, from the HR2 region of SARS-CoV-2 spike.

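The starting antibody came from a phage panning campaign against this peptide. These sequences belong to a second round, designed from the earlier measurements on random variants of the parent. Group labels follow the data file (Ctrl: baseline library sampled from a position-specific scoring matrix, with some repeated check sequences; GP: Gaussian process model; GPLM: also part of the Gaussian process libraries; HC: hill climbing; Gen: genetic algorithm; Gibbs: Gibbs sampling; a sequence that several methods proposed may carry one label only). Affinity was read by AlphaSeq, a pooled yeast mating assay with surface-displayed partners. After mating in shaken culture at 30 °C for 16 h, diploids were selected and their barcode pairs sequenced. Each replicate has its own calibration line, from reference interactions of the BCL2 family. There are six technical replicates.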

Ab-14 is the parent antibody, in scFv form: VH, then a (GGGGS)3 linker, then VL. The heavy chain is unchanged in all variants.
VH: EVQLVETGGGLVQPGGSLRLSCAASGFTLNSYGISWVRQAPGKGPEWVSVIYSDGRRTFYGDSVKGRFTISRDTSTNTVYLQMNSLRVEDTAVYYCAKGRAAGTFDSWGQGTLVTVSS
VL: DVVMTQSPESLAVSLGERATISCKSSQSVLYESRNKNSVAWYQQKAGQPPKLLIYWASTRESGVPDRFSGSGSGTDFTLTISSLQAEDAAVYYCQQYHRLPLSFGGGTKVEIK

Variants are written as CDR1, CDR2 and CDR3 of the light chain (limits as in the source). Parent: KSSQSVLYESRNKNSVA, WASTRES, QQYHRLPLS. This list holds designs with at most six substitutions. Kd is apparent (estimated from mating counts) and averaged on the log scale over replicates with a signal. Smaller is tighter. A pair that was not seen in any replicate is written "nd"; this usually means weak binding, but a binder can also be missed.

* KLSQSMLYESRNDNSVA, QASTRES, QQYHRLPLM [GP_Gibbs]: 550 pM (6 of 6 replicates)
* KSWQSVLYESRNKNSVA, WASARES, QQYHRLPLS [Ctrl]: nd (0 of 6 replicates)
* KSSQSQLYESRNKNSVA, WASTRES, QNYHRPPLS [Ctrl]: 27 nM (4 of 6 replicates)
* KSSQSVLYESMYKNSVA, WASTREA, QQYHRLPLS [Ctrl]: 240 nM (4 of 6 replicates)
* KMSQSVDFESRNKNSVA, DASTRES, QQYHRLPLS [GP_HC]: 760 pM (6 of 6 replicates)
* KGSISYLEESRNKNSVA, EASTRES, QQYHRLPLS [GP_HC]: 500 pM (6 of 6 replicates)
* KFSQSVLYESRTKNSVA, NAQTRET, QQYHRLPLS [GP_HC]: 290 pM (6 of 6 replicates)
* KLMGSVLYESRWKNAVA, GASTRES, QQYHRLPLS [GP_Gibbs]: 6.9 nM (6 of 6 replicates)
* KLSQSQLYESRNKNSVA, AASTRES, QQYHALPLS [Ctrl]: 1.5 nM (6 of 6 replicates)
* KSSQSVLYASRNKNSVA, WASTREL, QQYHRLPLS [Ctrl]: nd (0 of 6 replicates)
* KDSQEVLYESRNKENVA, NASTREV, QQYHRLPLS [Ctrl]: 540 pM (6 of 6 replicates)
* KFSQSVLYESRNVNSVA, WVSTRFS, QGYHRLPLS [Ctrl]: nd (0 of 6 replicates)
* KSLQSVLYESGNKNSVA, HASTRLD, QQYHRLPLS [GP_HC]: 2.6 nM (6 of 6 replicates)
* KSSILYLEESRNKNSVA, EASTRES, QQYHRLPLS [GP_HC]: 1.9 nM (6 of 6 replicates)
* KSSQSVLYEDRNKNSVA, QASTRES, QQYHRLPLS [Ctrl]: 12 nM (6 of 6 replicates)
* KFSQSMLYESRNKNSVA, NASQRLS, QQYHRLPLS [GP_Gen]: 1.8 nM (6 of 6 replicates)
* KWSMLVMGESRNKNSVA, NASTRES, QQYHRLPLS [GP_Gibbs]: 1.1 nM (6 of 6 replicates)
* KLSQSWLMESRNSNSVA, DASTRLS, QQYHRLPLS [GP_Gibbs]: 730 pM (6 of 6 replicates)
* KSSISYLEESRNKNSVA, EASTREE, QQYHRLPLS [GP_HC]: 1.6 nM (6 of 6 replicates)
* KFEQSVLYESRNKNSVA, NASTRES, QQYHRLPLS [GP_Gen]: 520 pM (6 of 6 replicates)
* KLRQQTLYESRNKNSVA, NASTREE, QQYHRLPLS [GP_HC]: 800 pM (6 of 6 replicates)
* KQSEEKLYESRNKNSVA, DASTRES, QQYHRLPLS [GP_HC]: 920 pM (6 of 6 replicates)
* KSSQSVLYFSWNKNSVA, WASQRES, QQYHRLPLS [Ctrl]: nd (0 of 6 replicates)
* HSSPSVYYESRNKNSVA, NASTRES, QQYHRLPLS [GP_HC]: 1.1 nM (6 of 6 replicates)
* KLQQSWLYESRNKNSVA, DASTRES, QQYHRLPLS [GP_Gen]: 490 pM (6 of 6 replicates)
* KVRQSTLYESRNKNAVA, WASTRES, QQYHRLPLS [GP_HC]: 3.1 nM (6 of 6 replicates)
* KLSHSVLYETFDKNSVA, WASTRES, QQYHRLPLS [Ctrl]: 8.3 nM (6 of 6 replicates)
* KFSQKVLYEGRMKNSVA, NASTRES, QQYHRLPLS [GP_HC]: 1.1 nM (6 of 6 replicates)
* KLMQSVLYESRNKNSVA, DASTRES, QQYHRLPLS [Ctrl+GP_Gen]: 610 pM (12 of 12 replicates)
* KQSQSVLYESRNKNSVA, DASTRES, QQYHRLPLI [GPLM_HC]: 8.2 nM (6 of 6 replicates)
* KSSQSCLYESRNKNSVA, WASTRES, QQYHRLPCT [Ctrl]: nd (0 of 6 replicates)
* KLSQSQLYESRNKNSVA, NASERES, QQYHRLPLS [GP_Gen]: 850 pM (6 of 6 replicates)
* KVSQSVPAESKNKNSVA, WASTRES, QQYHELPLS [Ctrl]: 12 nM (6 of 6 replicates)
* KISQSELYEDRNKNSVA, NASQRES, QQYHRLPLS [GP_Gen]: 550 pM (6 of 6 replicates)
* KLSQSVLYEDRNKNSVA, SASTRES, QQYHRLPLS [GP_Gen]: 300 pM (6 of 6 replicates)

Again, the first 4 entries without any signal:

CDR-L1,CDR-L2,CDR-L3,group,apparent Kd,seen in
KSWQSVLYESRNKNSVA,WASARES,QQYHRLPLS,Ctrl,nd,0/6
KSSQSVLYASRNKNSVA,WASTREL,QQYHRLPLS,Ctrl,nd,0/6
KFSQSVLYESRNVNSVA,WVSTRFS,QGYHRLPLS,Ctrl,nd,0/6
KSSQSVLYFSWNKNSVA,WASQRES,QQYHRLPLS,Ctrl,nd,0/6

Some sequences occur more than once in the pool; their replicates are pooled. Background: pairings of all light chain designs with three empty control strains gave a value in 4% of cases (median 430 nM, 5th percentile 38 nM). Values in that range, when seen in few replicates, are hard to tell from nonspecific mating. The parent sequence was in this pool as ten entries: three were never detected, three once, and four in most replicates, with averages from 2.2 nM to 240 nM. The range of this assay differs from that of the first round, and the authors advise against merging the two. The authors' rule: three or more of the six replicates give a measured affinity, fewer mean a poor binder.